Assay results: US20210393614A1, “QUINONE REDUCTASE 2 INHIBITORS FOR USE AS NEUROPROTECTIVE AGENTS” (DUKE UNIVERSITY, priority 2018, published 2021)

System: intracranial hemorrhagic injury
Experiment: Mouse model of intracranial hemorrhagic injury
Conditions: in vivo, ip

COc1cc(NC(C)CCCN)c2ncccc2c1 (stereo not shown) [primaquine, reference compound]
worsening in motor function: 35%
